# Measured affinities in a library of Ab-14 light chain variants

Data: MIT Lincoln Laboratory AlphaSeq set, Engelhart et al. 2022, doi:10.1038/s41597-022-01779-4, as distributed in FLAb.

Target peptide (SARS-CoV-2 spike, HR2 region): PDVDLGDISGINAS

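Phage display of a naive human antibody library on the peptide gave the parent. In library AAYL50, one, two or three CDR residues were substituted; doubles and triples were drawn at random. The assay is AlphaSeq: two haploid yeast populations carry antibody and antigen on their surface. After mating in shaken culture at 30 °C for 16 h, diploids were selected and their barcode pairs sequenced. Each replicate has its own calibration line, from reference interactions of the BCL2 family. The assay was run in three technical replicates.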

Parent: Ab-14, a human scFv built as VH, three GGGGS repeats, VL. Only the CDRs of the light chain vary.
VH: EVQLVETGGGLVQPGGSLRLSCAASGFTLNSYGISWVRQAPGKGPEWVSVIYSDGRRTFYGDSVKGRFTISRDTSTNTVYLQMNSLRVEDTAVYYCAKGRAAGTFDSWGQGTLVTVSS
VL: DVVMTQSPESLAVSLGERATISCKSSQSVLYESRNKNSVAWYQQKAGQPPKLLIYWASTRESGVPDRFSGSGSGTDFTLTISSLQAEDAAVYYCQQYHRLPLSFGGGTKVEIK

Each variant is given by its three light chain CDRs, as the data file delimits them; those of the parent are KSSQSVLYESRNKNSVA, WASTRES, QQYHRLPLS. Affinities are written as log10 Kd with Kd in nM; a lower number is a better binder. A mean of the replicates is given; it leaves out those without a signal. An entry "ND" has no value in the source: the pair was not observed among the diploids in that replicate. This suggests poor binding but is not conclusive.

For KSSQSVLYESRNFYSVA, WASTRES, QQYHRLPLM, the assay gave ND, ND, ND (controls 0 of 9).
For KSSQSVLYESRNKNSVA, WAITREC, QQFHRLPLS, the assay gave ND, ND, ND (controls 0 of 9).
For TSSQSVLYESRNKNSVA, WASTREC, QQYHREPLS, the assay gave 2.07, 1.88, 2.25 (mean 2.06; controls 5 of 9).
For KSSQSVLYESRNCNSVH, WASTRES, QQYHRLPLG, the assay gave ND, ND, 5.10 (controls 3 of 9).
For KSSQSVLYESRNKNSVA, WASTTES, QQYHRLPLS, the assay gave 2.31, 2.07, 1.98 (mean 2.12; controls 1 of 9).
For KSSQIALYESRNKNSVA, WASTRES, QQYHRAPLS, the assay gave 1.42, 1.42, 1.80 (mean 1.54; controls 1 of 9).
For KSSQSVLYESRNKNHVA, WASTRES, QQYHRLPQS, the assay gave 5.28, ND, ND (controls 0 of 9).
For KSSQMVLYESRNKNSVA, WDSTRES, QQYHRLPLQ, the assay gave ND, ND, ND (controls 0 of 9).
For KSSQSVLPESRNKNSVA, WASTRES, QQYHRLFFS, the assay gave 0.57, 0.69, 0.59 (mean 0.62; controls 2 of 9).
For KSSQSVLYESRNKNFVA, WASTRPS, QQYHSLPLS, the assay gave 4.14, 5.04, ND (mean 4.59; controls 2 of 9).
For KSSQSVLYESRNKNSVA, WAFTRAS, QQYHRLPKS, the assay gave 2.48, 2.09, 1.99 (mean 2.19; controls 3 of 9).
For KSSQSVLYESRNKNSPA, WASTRES, QQSHRNPLS, the assay gave 3.87, 4.68, ND (mean 4.28; controls 2 of 9).
For KSSQSVLYENRMNNSVA, WASTRES, QQYHRLPLS, the assay gave 1.09, 1.26, 1.25 (mean 1.20; controls 1 of 9).
For KSSQSVLYESRNKNCVA, WASTRES, QQYHRLPME, the assay gave 3.67, ND, ND (controls 0 of 9).
For KSSQSVLYESYNKNSVA, WASTRES, QQYHRQPLA, the assay gave 1.39, 1.19, 1.16 (mean 1.25; controls 1 of 9).
For KSSQSVLYESRNKNSVA, WASTRES, QQRLWLPLS, the assay gave 3.21, 3.81, ND (mean 3.51; controls 0 of 9).
For KSSQSVLYESRNKNSVA, EASTRTS, QQYHGLPLS, the assay gave 0.22, 0.56, 0.42 (mean 0.40; controls 1 of 9).
For KSSQSVLYKSRNKNSVA, WMSTRES, QQYHRLPLS, the assay gave 4.27, 2.97, 3.66 (mean 3.63; controls 4 of 9).
For KSSQSVLYESRNANAVA, WASTRES, QQYHRLPLS, the assay gave 0.49, 0.85, 0.49 (mean 0.61; controls 1 of 9).
For KSSQSVLYTSRNKNSVA, WASTRNM, QQYHRLPLS, the assay gave 1.82, 1.86, 2.23 (mean 1.97; controls 2 of 9).
For KSSQSVLYESRNQNSVA, WASTREH, QQEHRLPLS, the assay gave ND, ND, ND (controls 2 of 9).
For KCSQSVLYESKNKNSVA, WASTRES, QQYIRLPLS, the assay gave 1.71, 1.74, 1.61 (mean 1.69; controls 2 of 9).
For KSSQSVLYESRNQNSVA, WASTCES, QQYHRLPLS, the assay gave 5.08, 3.58, 6.73 (mean 5.13; controls 5 of 9).
For KSSQSVLYEIRNKNSVA, WASTRES, QQYHRLPLS, the assay gave 4.95, 3.27, 5.14 (mean 4.45; controls 3 of 9).
For KSSQSVLYEKRNKNSVW, WASTRES, QQYHRNPLS, the assay gave ND, ND, ND (controls 0 of 9).
For KSSQSVLYTSRDKNSVA, YASTRES, QQYHRLPLS, the assay gave 0.70, 0.97, 0.86 (mean 0.84; controls 1 of 9).
For KSEQSVLYESRNYNSVY, WASTRES, QQYHRLPLS, the assay gave ND, ND, ND (controls 1 of 9).
For KWSQSVLYESRNKNSVA, WTSTRES, QQYHQLPLS, the assay gave 1.17, 1.27, 1.10 (mean 1.18; controls 1 of 9).
For KSSQLVLYYSRNKNSVA, WASTRES, QQYHRLILS, the assay gave ND, ND, ND (controls 0 of 9).
For KSSQHVLYISRNKNSVA, WASTRES, QQYHRLPRS, the assay gave ND, ND, ND (controls 1 of 9).
For KSTQSVLYESRVKNSVA, WASTRES, QQYHRLYLS, the assay gave 3.45, 3.58, 5.50 (mean 4.18; controls 1 of 9).
For KSSQSVLYESRNKNNVW, WACTRES, QQYHRLPLS, the assay gave ND, ND, ND (controls 1 of 9).
For KSSQIVLYESRNKNSVA, WASTRES, QQYHSLPLS, the assay gave 1.95, 1.97, 2.13 (mean 2.01; controls 4 of 9).
For KSSQSVLKESRNKSSVA, MASTRES, QQYHRLPLS, the assay gave 1.91, 2.20, 1.86 (mean 1.99; controls 0 of 9).
For KSSQESLYESRNPNSVA, WASTRES, QQYHRLPLS, the assay gave 0.89, 1.09, 1.02 (mean 1.00; controls 1 of 9).

Again, the first 2 entries without any signal:

| CDR-L1 | CDR-L2 | CDR-L3 | log10 Kd, replicates | mean, log10 nM | signal with controls |
|---|---|---|---|---|---|
| KSSQSVLYESRNFYSVA | WASTRES | QQYHRLPLM | ND, ND, ND | ND | 0/9 |
| KSSQSVLYESRNKNSVA | WAITREC | QQFHRLPLS | ND, ND, ND | ND | 0/9 |

Background: pairings of library AAYL50 with three empty control strains gave a value in 18% of cases (median 4.19, 5th percentile 2.99). Values in that range, when seen in few replicates, are hard to tell from nonspecific mating. For each scFv, signals with the empty controls are counted beside the result. Parent in this assay: reference entry 0.65, copy in this library 1.68.